From patent publication US20030119895A1, “Methods using a combination of a 3-heteroaryl-2-indolinone and a cyclooxygenase-2 inhibitor for the treatment of neoplasia” (Pharmacia Corporation, priority 1998, published 2003)
Several values for one entry are separate records, joined by “and”; a condition that tells them apart may be missing. Identical values can stand only once. Like-named read-outs stand apart in the source and are kept apart here.

Conditions: for body wt Average: group average; for body wt: individual mouse
[1] = Group 5, SU-5416 50 mpkd, Day 0, day of injection
[2] = Group 5, SU-5416 50 mpkd, Day 7
[3] = Group 5, SU-5416 50 mpkd, Day 10
[4] = Group 5, SU-5416 50 mpkd, Day 14
[5] = Group 5, SU-5416 50 mpkd, Day 17
[6] = Group 5, SU-5416 50 mpkd, Day 21
[7] = Group 5, SU-5416 50 mpkd, Day 31

Cc1cc(C)c(C=C2C(=O)Nc3ccccc32)[nH]1
body wt Average (Group 2, SU5416 25 mg/kg/day s.c., Day 0, day of injection): 26.91
body wt (Group 2, SU5416 25 mg/kg/day s.c., Day 0, day of injection, 25 mg/kg/day): 28.71 and 26.6 and 24.24 and 25.48 and 26.36 and 22.53 and 29.41
body wt Average (Group 2, SU5416 25 mg/kg/day s.c., Day 7): 27.70
body wt (Group 2, SU5416 25 mg/kg/day s.c., Day 7, 25 mg/kg/day): 29.59 and 27.28 and 24.61 and 27.54 and 23.83 and 30.4
body wt (Group 2, SU5416 25 mg/kg/day s.c., Day 10, 25 mg/kg/day): 30.14 and 27.48 and 24.19 and 28.31 and 24.22
body wt Average (Group 2, SU5416 25 mg/kg/day s.c., Day 14): 26.84
body wt (Group 2, SU5416 25 mg/kg/day s.c., Day 14, 25 mg/kg/day): 29.47 and 23.54 and 27.08 and 29.41
body wt Average (Group 2, SU5416 25 mg/kg/day s.c., Day 17): 25.93
body wt (Group 2, SU5416 25 mg/kg/day s.c., Day 17, 25 mg/kg/day): 26.16 and 23.34 and 31.49 and 23.48 and 25.66 and 29.34
body wt Average (Group 2, SU5416 25 mg/kg/day s.c., Day 21): 25.25
body wt (Group 2, SU5416 25 mg/kg/day s.c., Day 21, 25 mg/kg/day): 28.31 and 25.2 and 31.41 and 23.29 and 24.3 and 28.9
body wt Average (Group 2, SU5416 25 mg/kg/day s.c., Day 24): 24.57
body wt (Group 2, SU5416 25 mg/kg/day s.c., Day 24, 25 mg/kg/day): 27.88 and 30.13
body wt Average (Group 2, SU5416 25 mg/kg/day s.c., Day 31): 24.16
body wt (Group 2, SU5416 25 mg/kg/day s.c., Day 31, 25 mg/kg/day): 22.69 and 27.38 and 27.9 and 23.36 and 29.73
body wt Average (Group 2, SU5416 25 mg/kg/day s.c., Day 35): 24.26
body wt (Group 2, SU5416 25 mg/kg/day s.c., Day 35, 25 mg/kg/day): 26.84 and 23.55 and 30.55 and 22.47 and 27.58
body wt Average [1]: 26.43
body wt [1]: 26.74 and 25.91 and 26.14 and 27.7 and 27.87 and 28.26 and 22.8
body wt Average [2]: 28.38
body wt [2]: 27.85 and 27.13 and 28.82 and 29.12 and 29.67 and 28.34 and 27.09
body wt Average [3]: 28.80
body wt [3]: 29.2 and 27.93 and 27.67 and 28.95 and 29.52 and 30.71 and 28.54 and 27.84
body wt Average [4]: 27.38
body wt [4]: 27.6 and 27.47 and 25.89 and 27.54 and 27.7 and 29.06 and 27.27 and 26.48
body wt Average [5]: 26.28
body wt [5]: 26.78 and 26.26 and 24.3 and 26.57 and 26.39 and 27.92 and 26.1 and 25.89
body wt Average [6]: 25.60
body wt [6]: 26.09 and 26.64 and 23.59 and 25.64 and 26.74 and 25.2
body wt (Group 5, SU-5416 50 mpkd, Day 24): 24.36 and 25.64 and 24.93 and 26.23 and 25.24
body wt Average [7]: 24.71
body wt [7]: 23.48 and 25.06 and 22.49 and 22.54 and 24.94 and 26.64 and 26.47
body wt (Group 5, SU-5416 50 mpkd, Day 35): 25.06 and 25.86 and 22.4 and 23.59 and 23.51 and 27.79 and 26.37 and 25.74
